Data from US20050203174A1, “Combination therapies using leptomycin B” (Kosan Biosciences, Inc., priority 2004, published 2005).

Tested on: colon cancer cell line DLD-1
Assay: Cell viability assay (CellTiter-Glo) and combination effect analysis of leptomycin B plus co-agent
Format: cell-based, Human
Conditions: combination with leptomycin B, DLD-1 cells, average CI over fraction affected 0.2 to 0.9
Procedure: The efficacy of a combination of leptomycin B and specific chemotherapeutic co-agents was determined. The additive, synergistic, or antagonistic effect of the combination of leptomycin B and a co-agent was calculated for each administration regimen using Calcusyn software (Biosoft, Cambridge, United Kingdom). This software calculates a combination index using the following algorithm: CI=[D]1/[Dx]1+[D]2/[Dx]2 where • CI is the combination index; • [D]1 and [D]2 are the concentrations of the two agents being tested (i.e., LMB and the co-agent) that, in combination provide a response of x % in the assay; and • [Dx]1 and [Dx]2 are the concentrations of the two agents that, when used alone, produce a response of x % in the assay.
A CI value of one means the combined effect of the two agents is additive. A CI value of less than one means that the two agents act synergistically. A CI value of greater than one means that the two agents act antagonistically.
The area under the curve where the fraction affected of cells (FA) ranged from 0.2 to 0.9 was calculated, to generate average CI values as shown in Table 1 for colon cancer cell line DLD-1.
Human colon adenocarcinoma cell line, DLD-1, was obtained from American Type Culture Collection (Manassas, Va.). […] Leptomycin B was produced by fermentation of a high producing isolate from Streptomyces sp. […] LMB is also available from commercial sources, such as Sigma-Aldrich. Other anti-cancer agents were either purchased commercially (e.g., from Sigma Chemical Co. (St. Louis, Mo.) or from Sequoia Research Products (Oxford, UK)).
Cells were seeded in duplicate in 96-well microtiter plates at a density of 4,000 cells per well and allowed to attach overnight. […] Cell viability was determined using the CellTiter-Glo luminescent cell viability assay (Promega). […] Cell viability was determined by the CellTiter-Glo luminescent cell viability assay. Synergism, additivity, or antagonism was determined by median effect analysis using the combination index (CI) calculated using Calcusyn (Biosoft, Cambridge, UK), as described above.

trastuzumab
Combination Index, LMB First (24 hours of LMB, then drug added and incubated for 48 hours): 0.84 ± 0.09
Combination Index, Co-Agent First (drug alone for 24 hours followed by addition of LMB for 48 hours): 0.99 ± 0.07
Combination Index, Simultaneous (simultaneous exposure to LMB and drug for 72 hours, constant ratio of IC50s): 0.87 ± 0.07
